Source: PubChem BioAssay AID1194 (EPA DSSTox, 2008)
Some results for these compounds are left out of this collection, so the calls shown say nothing about other tests. Activity calls are given as the source filed them.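 How the source made its calls: active means chemicals rated mutagenic or weakly mutagenic in the Salmonella bacterial test by one literature review, or positive overall by another; inconclusive means no clear call, values can overlap the other calls; inactive means the rest.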 A call without a number means that no potency is given here.

Test system: Salmonella typhimurium Ames mutagenicity, literature compiled
Assay: DSSTox (CPDBAS) Carcinogenic Potency Database Salmonella Mutagenicity
Text: The Carcinogenic Potency Database (CPDB) is a unique and widely used international resource of the results of over 6500 chronic, long-term animal cancer tests on over 1500 chemical substances. The CPDB provides easy access to the bioassay literature, with qualitative and quantitative analyses of both positive and negative experiments that have been published over the past 50 years in the general literature and by the National Cancer Institute/National Toxicology Program. The CPDB standardizes the diverse literature of cancer bioassays that vary widely in protocol, histopathological examination and nomenclature, and in the published author's choices of what information to provide in their papers. Results are reported in the CPDB for tests in rats, mice, hamsters, dogs, and nonhuman primates, and are based on the most positive result among all experiments for each sex-species. The DSSTox CPDBAS (all species) file incorporates data from the CPDB Summary Tables for the full list of over 1500 chemical substances tested in at least one species.
A chemical is classified within the CPDB as mutagenic, i.e. "active", in the Salmonella assay if it was evaluated overall as either "mutagenic" or "weakly mutagenic" by Zeiger [Zeiger, E. (1997) Genotoxicity Database. In: Gold and Zeiger, Eds. Handbook of Carcinogenic Potency and Genotoxicity Databases. […]

## N#CC(C#N)=Cc1ccccc1Cl
  outcome: active
